Source: patent publication US8716029B1, “Carbon nanotube sensors employing synthetic multifunctional peptides for surface functionalization” (dated 2014)

Assays:
[1] = Bare SWNT-FET device response to vapors (source-drain current); settings: saturated vapor at 25° C., 1 atm: TNT 12 ppb, RDX 6.6 ppt, HPT 2100 ppm; gate and source-drain bias −0.5 and 0.2V
[2] = system: P1ASP1C-functionalized SWNT-FET device; assay: P1ASP1C-functionalized SWNT-FET device response to vapors (source-drain current); settings: saturated vapor at 25° C., 1 atm: TNT 12 ppb, RDX 6.6 ppt, HPT 2100 ppm; gate and source-drain bias −0.5 and 0.2V

CCCCCC(C)=O
change of source-drain current (ISD) of bare SWNT-FET upon vapor exposure [1]: decreased
change of source-drain current (ISD) of P1ASP1C-functionalized SWNT-FET upon vapor exposure [2]: decrease in the ISD that was similar to that seen with the bare SWNT-FET
